The structures appear in SMILES notation. ≈ marks a conversion by molar mass, not a printed value.

For data set [1] the following is noted: APAP alone, overall pH range 4.0-8.0.
A further data set is described as follows: physchem. To be noted: water, thermodynamic from solid, Acetaminophen solubility, APAP alone in water.

The term solubility denotes the concentration that dissolves in the medium under given conditions. Higher therefore signals much dissolved substance. `CC(=O)Nc1ccc(O)cc1` [Acetaminophen]: the “difference in solubility of APAP over pH” value in data set [1] is on record as “no significant difference”. In addition, the solubility in the data set “physchem” (pH 4.5, aqueous buffer, pH 4.5) turned out to be 14.1 mg/mL (≈ 93.3 mM); in the data set “physchem” (pH 8, aqueous buffer, pH 8.0), 14.2 mg/mL (≈ 93.9 mM).

The values are drawn from patent US10052296B2, “Formulations for treating pain” (priority 2016, dated 2018).
